## Measured affinities in a library of Ab-14 heavy chain variants

The measurements come from Engelhart et al. 2022 (doi:10.1038/s41597-022-01779-4) through the FLAb antibody collection.

Target: peptide PDVDLGDISGINAS, taken from heptad repeat 2 (HR2) of SARS-CoV-2 spike.

Ab-14 is the parent antibody, in scFv form: VH, then the linker GGGGSGGGGSGGGGS, then VL. The light chain is unchanged in all variants.
VH: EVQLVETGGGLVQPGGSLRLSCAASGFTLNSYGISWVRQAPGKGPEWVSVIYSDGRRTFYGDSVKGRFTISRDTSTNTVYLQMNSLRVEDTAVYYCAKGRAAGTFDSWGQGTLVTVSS
VL: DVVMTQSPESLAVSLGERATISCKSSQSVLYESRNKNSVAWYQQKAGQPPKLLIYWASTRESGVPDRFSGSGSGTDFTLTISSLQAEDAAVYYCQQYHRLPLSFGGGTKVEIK

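The parent was found by panning a naive human phage display library on the peptide. The library (AAYL49) carries one to three amino acid substitutions per variant, with no insertions or deletions. AlphaSeq pools MATa yeast showing the antibodies with MATalpha yeast showing the peptide. The frequency of each diploid, read from paired DNA barcodes, reflects how well the two displayed proteins bind. Scores were corrected for input abundance and mapped to Kd with protein pairs of known affinity run in the same pool. Each pool was mated in three replicate cultures.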

Substitutions are numbered in sequence along the VH above, starting at 1 (not Kabat).
The read-out is the apparent dissociation constant on a log10 scale (nM): the lower, the stronger.
"ND" marks a missing value. The strain was present, yet no cells mated with the target were sequenced in that replicate, which points to weak or no binding.
As a blank, each scFv also met three strains without target: over library AAYL49, 15% of these pairings were detected, typically at 4.06 and seldom below 2.83. The control count says in how many pairings with the empty strains this scFv gave a signal, with their mean in brackets.

changes	log10 Kd (nM) by replicate	signal with controls
S63Y/G99P/A102I	ND / 2.82 / ND	1 of 9 (3.88)
V50R/D62E/R100D	ND / ND / ND	0 of 9
S31P/Y32T/S63T	3.39 / ND / 5.46	3 of 9 (3.15)
Y32R/S53G/R100F	2.89 / 3.71 / ND	1 of 9 (3.06)
N30M/I34N/D106V	ND / 3.86 / ND	0 of 9
S31L/G33P/A101I	ND / 4.19 / ND	2 of 9 (4.57)
D54V/R57H/D106L	ND / ND / 4.10	1 of 9 (4.06)
N30P/G61M/R100L	2.48 / ND / ND	0 of 9
I34W/I51K/T104K	ND / ND / ND	0 of 9
D54N/R56Y/G99A	2.84 / 2.55 / 3.23	2 of 9 (3.00)
Y60E/G61W/S107E	ND / 3.36 / ND	1 of 9 (4.29)
R56T/D62H/V64Y	3.25 / 2.91 / ND	0 of 9
Y32A/V50A/S107D	ND / ND / ND	1 of 9 (2.88)
I51K/R57S/V64W	ND / ND / ND	0 of 9
R57L/T58N/R100A	ND / ND / ND	0 of 9
F27K/I51E/V64L	ND / 3.22 / ND	1 of 9 (4.14)
R57N/T58L/G99S	ND / ND / ND	0 of 9
Y32R/S35H/S53N	ND / 2.27 / ND	0 of 9
R57A/G99P/D106H	ND / ND / ND	0 of 9
T104Y/F105M	2.39 / 2.71 / 2.94	4 of 9 (4.16)
R56S/D62S/A102S	3.09 / 2.56 / 4.03	5 of 9 (4.33)
I51T/S63H/T104Y	ND / 3.19 / ND	2 of 9 (3.20)
G99H/A101E/D106W	ND / ND / ND	1 of 9 (3.59)
G26S/N30V/G33T	4.40 / ND / ND	0 of 9
N30Y/D62C/D106H	ND / 3.80 / ND	3 of 9 (4.17)
L29E/G55M/T58N	ND / 4.83 / ND	1 of 9 (3.84)
I34A/T58W/R100M	ND / ND / ND	1 of 9 (2.27)
L29M/D54Y/D106H	ND / ND / ND	0 of 9
G33S/G103E/F105Q	ND / 2.91 / 2.71	0 of 9
R56W/F59D/Y60N	ND / ND / ND	1 of 9 (2.04)
S35A/R56Y/V64R	ND / ND / ND	0 of 9
T58C	1.54 / 1.50 / 1.36	0 of 9
I51M/D54V/G61I	ND / 4.76 / ND	1 of 9 (3.82)
N30T/S53V/A101V	1.08 / 1.04 / 1.25	1 of 9 (2.56)
S31H/V64I/A102V	ND / ND / ND	2 of 9 (4.72)
Y60G/S63N	ND / ND / ND	0 of 9
L29G/Y32C/D106R	5.22 / 5.72 / 5.29	2 of 9 (4.12)
G26S/T28Y/K65C	3.06 / 2.78 / 3.77	3 of 9 (4.67)
D54G/S63E/T104D	ND / ND / ND	1 of 9 (3.73)
G33Y/Y52F/R100I	ND / ND / 3.06	1 of 9 (3.88)
N30F/I51R/S63H	ND / ND / ND	0 of 9
F27R/S53N/R100M	ND / ND / ND	0 of 9
G26A/T28C/T104N	4.15 / 4.54 / 5.28	4 of 9 (4.28)
I51V/R56G/F59R	ND / ND / 3.97	1 of 9 (4.57)
Y52N/S53A/G61T	3.34 / 2.06 / 2.36	1 of 9 (4.03)
Y32N/I34G/D106E	4.90 / 4.81 / 4.11	6 of 9 (4.33)
V64D/R100F/D106C	ND / ND / ND	1 of 9 (4.00)

The 4 strongest on average among those seen in every replicate, once more:

changes	log10 Kd (nM) by replicate	signal with controls
N30T/S53V/A101V	1.08 / 1.04 / 1.25	1 of 9 (2.56)
T58C	1.54 / 1.50 / 1.36	0 of 9
Y52N/S53A/G61T	3.34 / 2.06 / 2.36	1 of 9 (4.03)
T104Y/F105M	2.39 / 2.71 / 2.94	4 of 9 (4.16)

Parent in this assay: reference entry 0.65, copy in this library 4.11 (one replicate of three).